The test has as its target human recombinant Monoacylglycerol Lipase (Homo sapiens, UniProt Q99685). Put plainly: MAGL inhibition enzymatic assay, fluorogenic substrate 7-HCA, IC50 at T=0 min or after 30 minute incubation (T=30 min). The conditions noted are these: geometric mean of 2-4 determinations unless otherwise indicated, tested form: ammonium salt.
Where [1] appears, read: read-out: MAGL (T = 0 min) IC50, T = 0 min (substrate added immediately).
[2] abbreviates: read-out: MAGL (T = 30 min) IC50, T = 30 min (30 minute incubation).

Protein sequences, listed by entry. Tags and fused reporters are not part of them.
UniProt Q99685, whole entry: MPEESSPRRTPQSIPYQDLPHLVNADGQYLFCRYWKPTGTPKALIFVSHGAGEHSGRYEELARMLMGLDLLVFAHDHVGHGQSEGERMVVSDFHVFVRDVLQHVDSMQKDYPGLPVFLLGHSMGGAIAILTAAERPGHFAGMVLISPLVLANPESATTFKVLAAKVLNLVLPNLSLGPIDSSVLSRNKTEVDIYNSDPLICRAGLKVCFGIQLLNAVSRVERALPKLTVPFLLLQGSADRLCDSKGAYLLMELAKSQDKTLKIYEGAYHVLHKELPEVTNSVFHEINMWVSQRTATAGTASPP

Molecules are shown by their SMILES. Read-outs that look alike come from different tables or passages of the source.

In general, IC50 refers to the concentration needed to halve the response being measured. For the compound `COP(=O)(O)OC[C@@H](OC(=O)N1CCC2(CC1)CN(S(=O)(=O)c1ccc(F)cc1)CCO2)C(F)(F)F`, the IC50 was greater than 3000 nM under setting [1] and 818 nM under setting [2].
The corresponding values for `CCOP(=O)(O)OC[C@@H](OC(=O)N1CCC2(CC1)CN(S(=O)(=O)c1ccc(F)cc1)CCO2)C(F)(F)F` are 198 nM and 15 nM.
